Assay results from US20260184748A1 (University of Pennsylvania, published 2026).

Molecular target: T1, F2RL3 (UniProt Q96RI0 18-385, limits assumed)
T1 sequence (looked up): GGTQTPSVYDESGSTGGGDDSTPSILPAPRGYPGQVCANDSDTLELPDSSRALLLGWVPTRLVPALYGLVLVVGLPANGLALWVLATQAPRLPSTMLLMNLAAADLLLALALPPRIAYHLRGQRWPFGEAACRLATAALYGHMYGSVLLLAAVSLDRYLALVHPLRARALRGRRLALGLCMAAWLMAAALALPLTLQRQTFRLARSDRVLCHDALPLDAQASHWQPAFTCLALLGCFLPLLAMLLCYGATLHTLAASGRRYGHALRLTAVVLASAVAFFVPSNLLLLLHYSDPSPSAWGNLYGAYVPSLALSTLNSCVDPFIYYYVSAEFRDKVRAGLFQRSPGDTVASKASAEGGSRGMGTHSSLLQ
Assay: cell-based or functional assay

- EC50 (RC50), arrestin, agonist mode: 2280 nM
B1: AYPGKF-NH2 (peptide)
peptide: AYPGKF
modifications: C-terminal -NH2
